Experiments:
OCT1 = conditions: cited from earlier work
human OAT1 = human OAT1 (Homo sapiens, UniProt Q4U2R8); conditions: 5 µM; 10 min; 37°C; vs mock cells
Procedure: (§1) OATP1B1-, OATP1B3-, OATP2B1-, NTCP-, OAT1-, and OAT3-transfected HEK293 cells were cultured in DMEM supplemented with 10% FBS, 100 U/mL penicillin-streptomycin at 37°C with 95% relative humidity atmosphere containing 5% CO2. All cells were seeded in 24-well plates at a density of 4 × 10^5 cells/well and cultured for 1–2 days until they reached 80%–90% confluence. Prior to the initiation of uptake studies, the cells were washed twice with HBSS buffer at 37°C. Membrane vesicles were stored at −80°C and thawed at 37°C prior to the initiation of the studies.
All uptake tests were performed in triplicates. The activities of transporter-transfected HEK293 cells were evaluated using relevant positive substrates and inhibitors. E17G (5 µM, OATP1B1 and OATP1B3), ES (2 µM, OATP2B1), ES (5 µM, OAT3), TCA (10 µM, NTCP), and PAH (20 µM, OAT1) were used as substrates of the transporters. The inhibitors for each transporter were rifampicin (200 µM, OATP1B1 and OATP1B3), erlotinib (10 µM, OATP2B1), CsA (20 µM, NTCP), and probenecid (200 µM, OAT1 and OAT3).
The cells were washed three times with ice-cold HBSS buffer. […] The total protein concentration was measured using a BCA Protein Assay Kit. The uptake rates of HEK293-OATP1B1, HEK293-OATP1B3, HEK293-OATP2B1, HEK293-NTCP, HEK293-OAT1, HEK293-OAT3, and mock cells were calculated. […]

Protein sequences, listed by entry. Tags and fused reporters are not part of them. Lines headed by an entry give the natural chain unless they say otherwise; changes in a name come on top.
UniProt Q4U2R8: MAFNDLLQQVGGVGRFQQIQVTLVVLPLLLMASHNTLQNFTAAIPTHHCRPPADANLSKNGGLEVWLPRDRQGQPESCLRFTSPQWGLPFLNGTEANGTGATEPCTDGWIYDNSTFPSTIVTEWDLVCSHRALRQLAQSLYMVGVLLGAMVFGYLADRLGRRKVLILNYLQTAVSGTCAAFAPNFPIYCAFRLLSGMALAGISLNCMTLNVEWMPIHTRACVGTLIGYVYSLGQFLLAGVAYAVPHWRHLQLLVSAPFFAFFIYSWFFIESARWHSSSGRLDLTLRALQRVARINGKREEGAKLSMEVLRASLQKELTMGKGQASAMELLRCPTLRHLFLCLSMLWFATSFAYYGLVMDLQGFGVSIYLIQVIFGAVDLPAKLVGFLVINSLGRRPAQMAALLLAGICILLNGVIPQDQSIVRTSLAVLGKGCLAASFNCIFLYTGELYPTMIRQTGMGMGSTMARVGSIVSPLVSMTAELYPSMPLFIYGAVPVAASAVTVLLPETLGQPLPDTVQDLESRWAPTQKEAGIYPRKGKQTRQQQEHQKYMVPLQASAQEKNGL
UniProt Q92887: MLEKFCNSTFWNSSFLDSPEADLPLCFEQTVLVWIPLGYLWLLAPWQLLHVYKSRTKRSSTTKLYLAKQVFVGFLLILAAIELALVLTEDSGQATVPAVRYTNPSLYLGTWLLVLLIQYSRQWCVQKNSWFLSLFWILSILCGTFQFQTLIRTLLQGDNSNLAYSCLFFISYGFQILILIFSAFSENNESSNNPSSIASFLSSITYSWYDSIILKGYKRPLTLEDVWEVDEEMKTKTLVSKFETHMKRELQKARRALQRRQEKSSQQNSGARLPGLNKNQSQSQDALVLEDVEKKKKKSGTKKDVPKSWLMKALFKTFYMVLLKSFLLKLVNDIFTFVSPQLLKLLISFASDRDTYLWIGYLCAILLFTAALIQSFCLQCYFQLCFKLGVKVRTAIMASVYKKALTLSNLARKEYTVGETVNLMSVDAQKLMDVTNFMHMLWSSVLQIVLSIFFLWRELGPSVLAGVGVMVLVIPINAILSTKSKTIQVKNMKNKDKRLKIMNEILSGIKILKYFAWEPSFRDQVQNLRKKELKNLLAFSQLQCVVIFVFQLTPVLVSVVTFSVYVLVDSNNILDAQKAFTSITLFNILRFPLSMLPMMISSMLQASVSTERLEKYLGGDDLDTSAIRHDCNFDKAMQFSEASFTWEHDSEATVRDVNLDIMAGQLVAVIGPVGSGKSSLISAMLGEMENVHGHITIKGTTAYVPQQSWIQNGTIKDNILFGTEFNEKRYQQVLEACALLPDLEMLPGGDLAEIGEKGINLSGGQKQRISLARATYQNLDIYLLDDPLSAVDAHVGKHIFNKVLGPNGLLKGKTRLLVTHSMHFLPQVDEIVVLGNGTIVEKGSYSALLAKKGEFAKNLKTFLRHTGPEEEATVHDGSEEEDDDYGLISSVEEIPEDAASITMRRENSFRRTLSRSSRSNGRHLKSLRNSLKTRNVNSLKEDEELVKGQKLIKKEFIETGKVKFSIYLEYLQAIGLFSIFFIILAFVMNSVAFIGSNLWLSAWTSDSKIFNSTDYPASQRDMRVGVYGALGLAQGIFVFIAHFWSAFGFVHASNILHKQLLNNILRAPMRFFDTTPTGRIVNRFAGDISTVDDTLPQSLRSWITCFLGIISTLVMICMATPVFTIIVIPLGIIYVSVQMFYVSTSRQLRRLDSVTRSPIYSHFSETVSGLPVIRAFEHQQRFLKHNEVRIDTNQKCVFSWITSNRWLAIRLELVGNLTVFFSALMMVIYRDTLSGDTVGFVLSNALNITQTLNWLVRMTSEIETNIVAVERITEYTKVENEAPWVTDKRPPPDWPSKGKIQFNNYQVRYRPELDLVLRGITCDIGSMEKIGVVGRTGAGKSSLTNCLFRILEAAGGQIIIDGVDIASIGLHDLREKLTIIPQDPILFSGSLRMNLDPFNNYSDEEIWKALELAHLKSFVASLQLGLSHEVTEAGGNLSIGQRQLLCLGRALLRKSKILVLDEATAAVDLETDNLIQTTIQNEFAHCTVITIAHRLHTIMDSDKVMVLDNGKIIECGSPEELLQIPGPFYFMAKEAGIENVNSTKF
UniProt P08183, whole entry: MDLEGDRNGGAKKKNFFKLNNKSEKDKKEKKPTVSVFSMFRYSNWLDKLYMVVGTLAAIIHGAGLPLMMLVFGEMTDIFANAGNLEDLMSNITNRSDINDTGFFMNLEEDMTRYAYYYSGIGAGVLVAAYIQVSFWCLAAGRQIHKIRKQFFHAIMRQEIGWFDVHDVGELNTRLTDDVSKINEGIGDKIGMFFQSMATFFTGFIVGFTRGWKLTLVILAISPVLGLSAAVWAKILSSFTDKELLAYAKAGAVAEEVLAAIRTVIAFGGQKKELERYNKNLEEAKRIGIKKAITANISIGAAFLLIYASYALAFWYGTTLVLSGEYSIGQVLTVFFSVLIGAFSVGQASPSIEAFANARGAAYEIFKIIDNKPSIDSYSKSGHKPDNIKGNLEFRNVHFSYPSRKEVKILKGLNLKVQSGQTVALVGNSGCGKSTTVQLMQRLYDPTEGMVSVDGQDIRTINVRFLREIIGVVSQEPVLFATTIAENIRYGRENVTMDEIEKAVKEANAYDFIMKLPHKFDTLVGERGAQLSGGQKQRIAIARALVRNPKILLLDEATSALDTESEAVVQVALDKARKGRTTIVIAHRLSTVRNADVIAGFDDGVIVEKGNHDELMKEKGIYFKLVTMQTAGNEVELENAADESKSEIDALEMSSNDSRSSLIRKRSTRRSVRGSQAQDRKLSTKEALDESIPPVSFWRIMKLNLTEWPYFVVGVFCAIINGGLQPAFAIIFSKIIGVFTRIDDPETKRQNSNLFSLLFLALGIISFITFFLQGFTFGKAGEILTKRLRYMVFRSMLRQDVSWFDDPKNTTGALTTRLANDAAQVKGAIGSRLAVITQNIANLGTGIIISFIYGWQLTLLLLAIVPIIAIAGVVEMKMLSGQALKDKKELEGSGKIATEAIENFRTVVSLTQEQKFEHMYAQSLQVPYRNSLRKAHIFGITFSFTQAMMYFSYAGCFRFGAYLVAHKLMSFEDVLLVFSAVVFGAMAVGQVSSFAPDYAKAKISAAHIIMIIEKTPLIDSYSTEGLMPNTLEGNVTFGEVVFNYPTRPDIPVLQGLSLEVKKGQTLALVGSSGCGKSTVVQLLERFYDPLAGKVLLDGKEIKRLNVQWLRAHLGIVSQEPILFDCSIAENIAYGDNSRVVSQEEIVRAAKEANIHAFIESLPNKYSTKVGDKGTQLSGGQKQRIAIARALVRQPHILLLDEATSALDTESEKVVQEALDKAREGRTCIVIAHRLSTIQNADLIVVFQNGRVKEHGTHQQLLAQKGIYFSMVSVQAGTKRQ

[1] = PNU-142300 and PNU-142586; cited from earlier work
OCT2 = conditions: cited from earlier work
human MRP2 = human MRP2 (Homo sapiens, UniProt Q92887); conditions: 5 µM; 5 min; 37°C; ATP vs AMP
Procedure: as §1
(§2) An AB Sciex 4000 Mass Spectrometer (AB Sciex, Framingham, MA, USA) and Shimadzu LC 20 series (Shimadzu, Kyoto, Japan) were used for HPLC-MS/MS. […] The Phenomenex Synergi Hydro-RP column (30 mm × 2 mm, 4 µm, Phenomenex Inc., Torrance, CA, USA) was used for chromatographic separation. The mobile phase consisted of 0.1% (vol/vol) formic acid in water (A) and 0.1% (vol/vol) formic acid in acetonitrile (B). The gradient conditions were as follows: 0–1.4 min, 15%–80% B; 1.4–1.8 min, 80% B; 1.8–1.81 min, return to 15% B; 1.81–2.1 min, equilibrium. The flow rate was 450 µL/min. Data acquisition and analysis were performed using the Analyst software (version 1.4.1, AB Sciex).

human MDR1 = human MDR1 (Homo sapiens, UniProt P08183); conditions: 5 µM; 5 min; 37°C; ATP vs AMP
Procedure: as §1, §2

OATP1B1 = conditions: cited from earlier work

CC(=O)NC[C@H]1CN(c2ccc(N3CCOCC3)c(F)c2)C(=O)O1 [Linezolid]
substrate for OCT1 (OCT1): not a substrate
substrate for OAT1 (human OAT1): not a substrate
administered dose excreted in the urine as the two metabolites [1]: Approximately 50%
inhibitor of OCT2 (OCT2): not an inhibitor
substrate for MRP2 (human MRP2): not a substrate
substrate for MDR1 (human MDR1): not a substrate
inhibitor of OATP1B1 (OATP1B1): inhibitor

Source: PMC12057336 (Antimicrobial Agents and Chemotherapy, 2025)
